Experimental data reported in the kinase profiling compilation of Christmann-Franck et al. (2016).

Amino acid sequences for entries named in this document (tags omitted). A change or cut given only in a name is not applied to a line headed by its entry.
UniProt O75676: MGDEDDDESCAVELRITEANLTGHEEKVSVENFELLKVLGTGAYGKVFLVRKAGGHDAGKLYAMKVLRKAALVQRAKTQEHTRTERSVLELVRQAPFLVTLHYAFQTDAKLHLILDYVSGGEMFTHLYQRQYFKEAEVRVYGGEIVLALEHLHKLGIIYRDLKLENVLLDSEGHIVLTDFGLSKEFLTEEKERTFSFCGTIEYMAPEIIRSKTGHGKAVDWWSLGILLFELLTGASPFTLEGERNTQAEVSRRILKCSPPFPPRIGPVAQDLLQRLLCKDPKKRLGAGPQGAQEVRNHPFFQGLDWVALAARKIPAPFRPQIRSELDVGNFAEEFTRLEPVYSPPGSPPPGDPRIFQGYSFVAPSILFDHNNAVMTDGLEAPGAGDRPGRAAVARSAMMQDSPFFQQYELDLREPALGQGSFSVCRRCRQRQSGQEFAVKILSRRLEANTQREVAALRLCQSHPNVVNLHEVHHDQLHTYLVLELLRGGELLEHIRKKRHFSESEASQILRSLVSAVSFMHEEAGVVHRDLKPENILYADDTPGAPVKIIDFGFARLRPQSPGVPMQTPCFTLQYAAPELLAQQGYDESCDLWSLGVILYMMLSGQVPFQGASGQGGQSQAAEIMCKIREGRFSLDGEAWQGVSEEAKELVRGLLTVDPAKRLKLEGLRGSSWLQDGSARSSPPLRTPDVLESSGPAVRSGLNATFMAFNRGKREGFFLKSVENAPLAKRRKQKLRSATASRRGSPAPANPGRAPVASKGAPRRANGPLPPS
UniProt P30281: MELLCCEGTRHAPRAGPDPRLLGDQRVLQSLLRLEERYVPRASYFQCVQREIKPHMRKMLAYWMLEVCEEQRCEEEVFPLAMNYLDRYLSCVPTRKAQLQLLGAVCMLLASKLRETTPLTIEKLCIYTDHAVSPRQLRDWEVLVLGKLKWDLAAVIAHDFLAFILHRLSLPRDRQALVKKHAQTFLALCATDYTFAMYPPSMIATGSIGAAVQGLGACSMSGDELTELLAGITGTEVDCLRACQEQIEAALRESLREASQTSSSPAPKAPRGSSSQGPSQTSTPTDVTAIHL
UniProt Q00534, whole entry, looked up: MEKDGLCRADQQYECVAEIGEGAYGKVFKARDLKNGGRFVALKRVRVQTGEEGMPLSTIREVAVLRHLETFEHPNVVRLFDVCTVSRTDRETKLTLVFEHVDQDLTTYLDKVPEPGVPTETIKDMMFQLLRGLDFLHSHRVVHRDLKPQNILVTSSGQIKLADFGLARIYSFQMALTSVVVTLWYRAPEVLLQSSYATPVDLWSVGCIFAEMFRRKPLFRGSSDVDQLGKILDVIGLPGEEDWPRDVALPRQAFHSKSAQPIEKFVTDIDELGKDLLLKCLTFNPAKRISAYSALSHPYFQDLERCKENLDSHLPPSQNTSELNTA
UniProt Q7KZI7: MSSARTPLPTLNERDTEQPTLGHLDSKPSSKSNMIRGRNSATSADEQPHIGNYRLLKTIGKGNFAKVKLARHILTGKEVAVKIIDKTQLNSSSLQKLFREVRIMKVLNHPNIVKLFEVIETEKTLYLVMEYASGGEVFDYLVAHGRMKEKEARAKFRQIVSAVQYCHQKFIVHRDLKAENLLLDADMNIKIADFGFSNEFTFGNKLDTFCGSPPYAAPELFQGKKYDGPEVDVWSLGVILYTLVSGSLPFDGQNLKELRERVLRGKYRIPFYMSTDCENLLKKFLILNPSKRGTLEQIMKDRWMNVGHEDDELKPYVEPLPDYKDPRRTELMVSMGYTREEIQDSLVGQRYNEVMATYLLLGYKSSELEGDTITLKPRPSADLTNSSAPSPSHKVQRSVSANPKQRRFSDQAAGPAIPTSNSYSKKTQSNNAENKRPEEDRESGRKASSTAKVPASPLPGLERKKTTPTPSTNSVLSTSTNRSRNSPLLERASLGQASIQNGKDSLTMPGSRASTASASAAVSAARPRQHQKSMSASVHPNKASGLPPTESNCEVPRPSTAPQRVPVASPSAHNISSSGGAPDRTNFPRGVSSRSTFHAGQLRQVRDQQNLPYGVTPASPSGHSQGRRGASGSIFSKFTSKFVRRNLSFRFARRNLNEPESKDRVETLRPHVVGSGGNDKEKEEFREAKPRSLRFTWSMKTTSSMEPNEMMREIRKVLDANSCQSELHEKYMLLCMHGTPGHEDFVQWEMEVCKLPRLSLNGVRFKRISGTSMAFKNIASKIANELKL
UniProt P06493, whole entry, looked up: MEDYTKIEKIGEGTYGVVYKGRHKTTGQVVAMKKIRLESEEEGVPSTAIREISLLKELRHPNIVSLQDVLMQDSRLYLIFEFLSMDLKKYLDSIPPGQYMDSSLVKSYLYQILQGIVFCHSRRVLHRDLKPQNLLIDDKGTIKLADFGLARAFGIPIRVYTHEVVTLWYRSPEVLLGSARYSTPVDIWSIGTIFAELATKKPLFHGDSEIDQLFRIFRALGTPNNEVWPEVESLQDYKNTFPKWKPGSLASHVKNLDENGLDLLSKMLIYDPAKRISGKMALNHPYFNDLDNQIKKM
UniProt O75909: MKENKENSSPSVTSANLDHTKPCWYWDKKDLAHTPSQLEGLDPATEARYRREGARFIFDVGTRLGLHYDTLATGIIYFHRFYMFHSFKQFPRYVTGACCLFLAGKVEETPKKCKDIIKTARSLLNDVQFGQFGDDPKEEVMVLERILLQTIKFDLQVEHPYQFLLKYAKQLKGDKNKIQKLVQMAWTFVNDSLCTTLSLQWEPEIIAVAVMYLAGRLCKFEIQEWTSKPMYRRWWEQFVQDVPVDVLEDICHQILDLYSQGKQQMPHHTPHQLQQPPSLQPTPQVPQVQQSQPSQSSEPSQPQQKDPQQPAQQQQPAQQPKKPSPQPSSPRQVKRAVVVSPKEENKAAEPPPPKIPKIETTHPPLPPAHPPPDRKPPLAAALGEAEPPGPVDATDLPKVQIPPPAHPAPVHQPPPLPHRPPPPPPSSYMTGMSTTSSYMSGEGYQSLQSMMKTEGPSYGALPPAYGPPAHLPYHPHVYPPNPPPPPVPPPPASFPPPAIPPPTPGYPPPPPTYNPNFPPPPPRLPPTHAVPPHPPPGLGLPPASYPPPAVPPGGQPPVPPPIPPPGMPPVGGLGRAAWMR
UniProt P50750, whole entry, looked up: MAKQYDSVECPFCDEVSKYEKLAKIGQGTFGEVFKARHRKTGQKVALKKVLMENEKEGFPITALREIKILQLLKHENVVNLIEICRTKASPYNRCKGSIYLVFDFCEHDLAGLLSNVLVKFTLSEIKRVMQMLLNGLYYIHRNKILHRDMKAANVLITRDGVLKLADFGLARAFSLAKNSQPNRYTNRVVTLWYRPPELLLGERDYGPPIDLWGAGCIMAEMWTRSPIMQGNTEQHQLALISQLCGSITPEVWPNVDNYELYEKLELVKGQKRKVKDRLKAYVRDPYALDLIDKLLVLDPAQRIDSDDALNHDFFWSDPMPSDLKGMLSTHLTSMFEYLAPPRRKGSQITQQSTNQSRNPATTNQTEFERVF
UniProt Q15078: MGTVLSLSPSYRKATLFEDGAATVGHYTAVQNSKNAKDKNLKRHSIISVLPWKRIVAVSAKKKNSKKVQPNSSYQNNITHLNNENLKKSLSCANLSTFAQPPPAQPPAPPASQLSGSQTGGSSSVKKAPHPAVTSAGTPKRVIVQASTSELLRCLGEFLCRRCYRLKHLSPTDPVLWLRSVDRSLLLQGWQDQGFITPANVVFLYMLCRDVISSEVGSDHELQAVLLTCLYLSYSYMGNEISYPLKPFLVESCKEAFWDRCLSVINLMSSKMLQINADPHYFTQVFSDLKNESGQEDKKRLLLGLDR
UniProt Q9HBH9: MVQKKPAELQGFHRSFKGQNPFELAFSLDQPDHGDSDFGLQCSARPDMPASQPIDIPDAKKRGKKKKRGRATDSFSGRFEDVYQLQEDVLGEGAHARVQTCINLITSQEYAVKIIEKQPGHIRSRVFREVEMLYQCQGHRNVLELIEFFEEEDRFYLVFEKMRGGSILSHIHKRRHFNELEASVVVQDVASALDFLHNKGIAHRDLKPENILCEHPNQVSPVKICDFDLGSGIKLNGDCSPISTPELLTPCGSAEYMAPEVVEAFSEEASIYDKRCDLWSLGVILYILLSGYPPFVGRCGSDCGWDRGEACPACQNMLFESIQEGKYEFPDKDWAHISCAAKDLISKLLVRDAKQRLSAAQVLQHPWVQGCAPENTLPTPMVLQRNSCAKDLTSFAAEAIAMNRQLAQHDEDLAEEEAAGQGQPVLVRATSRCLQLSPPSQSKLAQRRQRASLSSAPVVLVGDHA
UniProt O60563, whole entry, looked up: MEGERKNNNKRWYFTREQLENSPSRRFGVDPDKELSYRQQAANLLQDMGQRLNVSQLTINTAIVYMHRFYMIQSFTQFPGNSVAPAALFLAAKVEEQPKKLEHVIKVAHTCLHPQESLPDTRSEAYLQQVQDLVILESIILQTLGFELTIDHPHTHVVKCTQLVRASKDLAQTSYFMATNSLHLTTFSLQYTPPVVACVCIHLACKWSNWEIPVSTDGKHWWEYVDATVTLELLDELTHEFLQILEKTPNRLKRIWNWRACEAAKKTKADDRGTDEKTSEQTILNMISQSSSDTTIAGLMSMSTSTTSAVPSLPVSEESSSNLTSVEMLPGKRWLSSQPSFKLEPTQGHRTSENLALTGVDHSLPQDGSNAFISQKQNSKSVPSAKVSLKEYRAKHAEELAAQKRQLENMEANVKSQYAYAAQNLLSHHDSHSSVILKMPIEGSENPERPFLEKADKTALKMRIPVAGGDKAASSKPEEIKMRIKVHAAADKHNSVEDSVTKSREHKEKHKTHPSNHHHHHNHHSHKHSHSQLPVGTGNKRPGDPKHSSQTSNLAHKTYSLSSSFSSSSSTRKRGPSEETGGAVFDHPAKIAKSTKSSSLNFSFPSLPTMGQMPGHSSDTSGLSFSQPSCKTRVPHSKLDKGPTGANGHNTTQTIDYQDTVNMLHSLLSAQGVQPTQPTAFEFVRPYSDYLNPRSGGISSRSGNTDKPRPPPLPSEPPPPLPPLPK
UniProt P48729: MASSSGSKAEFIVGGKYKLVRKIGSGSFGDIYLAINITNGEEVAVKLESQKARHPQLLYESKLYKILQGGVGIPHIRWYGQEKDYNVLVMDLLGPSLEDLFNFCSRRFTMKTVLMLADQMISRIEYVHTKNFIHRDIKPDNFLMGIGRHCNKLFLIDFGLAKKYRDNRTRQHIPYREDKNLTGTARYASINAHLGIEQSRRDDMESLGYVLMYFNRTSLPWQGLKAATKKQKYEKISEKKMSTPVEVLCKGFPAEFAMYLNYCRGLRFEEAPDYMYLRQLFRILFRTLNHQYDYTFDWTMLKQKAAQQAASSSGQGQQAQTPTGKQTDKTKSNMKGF
UniProt P11802: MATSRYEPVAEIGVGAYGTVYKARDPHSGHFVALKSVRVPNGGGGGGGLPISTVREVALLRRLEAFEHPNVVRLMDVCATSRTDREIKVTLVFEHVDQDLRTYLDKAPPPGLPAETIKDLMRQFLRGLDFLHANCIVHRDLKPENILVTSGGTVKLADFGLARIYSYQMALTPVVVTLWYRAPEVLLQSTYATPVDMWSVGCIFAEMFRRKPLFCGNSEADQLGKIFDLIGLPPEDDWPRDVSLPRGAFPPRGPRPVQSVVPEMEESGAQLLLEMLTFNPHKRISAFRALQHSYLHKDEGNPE
UniProt P51948: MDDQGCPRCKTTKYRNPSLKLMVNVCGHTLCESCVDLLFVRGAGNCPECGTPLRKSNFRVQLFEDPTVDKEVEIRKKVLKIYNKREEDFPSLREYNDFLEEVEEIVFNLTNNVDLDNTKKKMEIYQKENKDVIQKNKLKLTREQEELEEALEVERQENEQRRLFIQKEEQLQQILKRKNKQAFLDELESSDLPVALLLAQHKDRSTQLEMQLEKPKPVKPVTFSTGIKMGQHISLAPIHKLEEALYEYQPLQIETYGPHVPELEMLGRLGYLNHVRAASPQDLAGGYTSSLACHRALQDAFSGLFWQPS
UniProt P51617, whole entry, looked up: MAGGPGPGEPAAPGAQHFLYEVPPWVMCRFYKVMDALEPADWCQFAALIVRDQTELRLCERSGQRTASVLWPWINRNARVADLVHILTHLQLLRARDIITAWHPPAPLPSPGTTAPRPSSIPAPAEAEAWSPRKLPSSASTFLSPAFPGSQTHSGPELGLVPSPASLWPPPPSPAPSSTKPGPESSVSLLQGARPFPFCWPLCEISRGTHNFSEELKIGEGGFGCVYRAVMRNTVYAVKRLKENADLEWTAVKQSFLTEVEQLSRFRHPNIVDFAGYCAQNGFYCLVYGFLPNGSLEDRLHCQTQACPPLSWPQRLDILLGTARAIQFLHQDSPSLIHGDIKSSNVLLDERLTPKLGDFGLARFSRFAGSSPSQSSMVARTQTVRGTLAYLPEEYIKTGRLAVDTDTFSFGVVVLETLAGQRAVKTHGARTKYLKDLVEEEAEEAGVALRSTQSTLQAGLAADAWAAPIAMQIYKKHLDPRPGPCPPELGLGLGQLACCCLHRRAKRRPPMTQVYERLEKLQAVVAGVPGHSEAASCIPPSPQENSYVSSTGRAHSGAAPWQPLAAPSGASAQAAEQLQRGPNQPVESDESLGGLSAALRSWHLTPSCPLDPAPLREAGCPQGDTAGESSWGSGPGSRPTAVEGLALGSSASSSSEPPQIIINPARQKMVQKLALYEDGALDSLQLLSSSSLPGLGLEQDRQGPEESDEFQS

What was measured:
Test in all cases: radiometric filter-binding kinase assay, Kinase HotSpot
Details in all cases: compound 0.5 µM; ATP 10 µM
[1] = target: WEE1 (human) (UniProt P30291)
[2] = target: PDPK1 (human) (UniProt O15530)
[3] = target: RPS6KA4 KD2 (human) (UniProt O75676)
[4] = target: SRMS (human) (UniProt Q9H3Y6)
[5] = target: DMPK (human) (UniProt Q09013)
[6] = target: CDK6 CCND3 (human) (UniProt P30281+Q00534)
[7] = target: MARK2 (human) (UniProt Q7KZI7)
[8] = target: FYN (human) (UniProt P06241)
[9] = target: CDK1 CCNB1 (human) (UniProt P06493+P14635)
[10] = target: CDK9 CCNK (human) (UniProt O75909+P50750)
[11] = target: STK24 (human) (UniProt Q9Y6E0)
[12] = target: CDK5 CDK5R1 p25 (human) (UniProt Q00535+Q15078)
[13] = target: MKNK2 (human) (UniProt Q9HBH9)
[14] = target: CDK9 CCNT1 (human) (UniProt P50750+O60563)
[15] = target: CSNK1A1 (human) (UniProt P48729)
[16] = target: CDK5 CDK5R1 p35 (human) (UniProt Q00535+Q15078)
[17] = target: MAP3K7 TAB1 (human) (UniProt O43318+Q15750)
[18] = target: CDK4 CCND1 (human) (UniProt P24385+P11802)
[19] = target: CDK7 CCNH MNAT1 (human) (UniProt P50613+P51948+P51946)
[20] = target: IRAK1 (human) (UniProt P51617)
[21] = target: DYRK1A (human) (UniProt Q13627)
[22] = target: CDK4 CCND3 (human) (UniProt P30281+P11802)
[23] = target: CDK6 CCND1 (human) (UniProt Q00534+P24385)

## COc1cc(OC)c(/C=C2\C(=O)Nc3ccccc32)c(OC)c1
[1]
  residual activity: 94.2%
[2]
  residual activity: 96.1%
[3]
  residual activity: 99.7%
[4]
  residual activity: 97.7%
[5]
  residual activity: 104%

## O=C1c2ccccc2-[n+]2ccc3c([nH]c4ccccc43)c21
[6]
  residual activity: 59.8%
[1]
  residual activity: 89.5%
[7]
  residual activity: 91.5%
[8]
  residual activity: 100%
[9]
  residual activity: 53.5%
[10]
  residual activity: 96%
[11]
  residual activity: 90.4%
[12]
  residual activity: 70.3%
[13]
  residual activity: 85%
[14]
  residual activity: 84.2%
[15]
  residual activity: 118%
[16]
  residual activity: 85%
[17]
  residual activity: 96.9%
[18]
  residual activity: 63.4%
[3]
  residual activity: 90.6%
[19]
  residual activity: 114%
[4]
  residual activity: 89.5%
[20]
  residual activity: 103%
[5]
  residual activity: 126%
[21]
  residual activity: 105%
[22]
  residual activity: 76.8%
[23]
  residual activity: 70.1%
